Measurements published in PubChem BioAssay AID624466 (The Scripps Research Institute Molecular Screening Center, 2012).
This is a selection; strong and weak results do not stand in their true shares. Active and inactive are the calls of the source.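 Rule for the calls: active = inhibition above a per-plate cutoff, the mean inhibition of test compounds on that plate plus 3 SD (cut at about 49% in these data); inactive = the rest.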

Amino acid sequences for entries named in this document (tags omitted).
UniProt Q96RJ0, whole entry: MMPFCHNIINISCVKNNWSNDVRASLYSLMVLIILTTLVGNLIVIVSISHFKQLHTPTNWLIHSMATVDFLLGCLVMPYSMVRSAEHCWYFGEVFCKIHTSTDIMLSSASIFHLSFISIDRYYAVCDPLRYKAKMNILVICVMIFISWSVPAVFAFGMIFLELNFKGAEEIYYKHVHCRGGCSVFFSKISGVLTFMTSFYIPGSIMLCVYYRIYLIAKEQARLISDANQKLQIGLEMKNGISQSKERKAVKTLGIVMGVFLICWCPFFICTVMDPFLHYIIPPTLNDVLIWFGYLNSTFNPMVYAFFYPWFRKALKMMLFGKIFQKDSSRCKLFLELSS

target: Trace amine-associated receptor 1 (Homo sapiens) (UniProt Q96RJ0); assay: blockers of beta-PEA-driven TAAR1 calcium signal – Fluo-8 calcium fluorescence, CHO RD-HGA16 cells, primary screen (AID 624466); conditions: CHO RD-HGA16 TAAR1, Fluo-8 calcium fluorescence, antagonist; at 3 µM; stronger effect = higher value;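 note: 0% = DMSO plus EC80 beta-PEA response and 100% = DMSO alone without agonist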

| Structure (SMILES) | inhibition |
| --- | --- |
| Fc1ccccc1NC1CCN(Cc2ccccc2)CC1 | inactive: -21.1% |
| Cc1ccc(NC2(C#N)CCN(Cc3ccccc3)CC2)cc1 | inactive: -11.2% |
| CC(=O)N(c1ccccc1)C1CCNCC1 | inactive: -11.4% |
| COc1cccc(C(c2nnnn2C2CCCCC2)N2CCC(n3c(=O)[nH]c4ccccc43)CC2)c1OC (configuration not stated) | active: 60.8% |
| CCC(c1nnnn1C1CCCCC1)N1CCC(n2c(=O)[nH]c3ccccc32)CC1 (configuration not stated) | inactive: -0.49% |
| O=c1[nH]c2ccccc2n1C1CCN(C(c2ccnc3ccccc23)c2nnnn2C2CCCCC2)CC1 (configuration not stated) | active: 50.2% |
| COc1cc(OC)cc(C(=O)NCC2(N3CCCCC3)CCCCC2)c1 | inactive: -3.15% |
| O=C(NCC1(N2CCCCC2)CCCCC1)c1ccco1 | inactive: 5.04% |
| Cn1c(=O)[nH]cc(N(CCCl)CCCl)c1=O | inactive: -11.3% |
| CN(C)c1ccc(C(=O)NCC2(N3CCCCC3)CCCCC2)cc1 | inactive: -9.35% |
| Cc1ccccc1NC1(C#N)CCN(Cc2ccccc2)CC1 | inactive: -9.4% |
| CC(C)(C)n1nnnc1C(c1ccnc2ccccc12)N1CCC(n2c(=O)[nH]c3ccccc32)CC1 (configuration not stated) | inactive: 7.53% |
| COc1ccc(C(c2nnnn2C2CCCCC2)N2CCC(n3c(=O)[nH]c4ccccc43)CC2)cc1 (configuration not stated) | inactive: 16.4% |
| CCN1CCC(Nc2cccc(F)c2)CC1 | inactive: -3.23% |
| CC(C)(C)OC(=O)N1CCC(Nc2ccccc2)CC1 | inactive: -1.03% |
| NN(c1ccccc1)C1CCN(CCc2ccccc2)CC1 | inactive: 4.39% |
| O=C(O)C1(Nc2ccccc2)CCN(Cc2ccccc2)CC1 | inactive: -8.96% |
| CCCOc1ccc(C(=O)NCC2(N(C)C)CCCCC2)cc1 | inactive: -23.5% |
| O=c1[nH]c2ccccc2n1C1CCN(C(c2cc3ccccc3o2)c2nnnn2C2CCCC2)CC1 (configuration not stated) | inactive: 35.4% |
| CCOc1ncccc1C(=O)NCC1(N2CCOCC2)CCCCC1 | inactive: 7.28% |
| CN1CCC(Nc2ccc(F)c(Cl)c2)CC1 | inactive: 6.79% |
| CN1CCC(Nc2ccc(Cl)cc2)CC1 | inactive: -3.61% |
| COc1cccc(C(=O)N(c2cc(C)cc(C)c2)C2CCN(C(=O)OC(C)(C)C)CC2)c1 | inactive: 0.6% |
| COc1cccc(C(c2nnnn2C2CCCC2)N2CCC(n3c(=O)[nH]c4ccccc43)CC2)c1OC (configuration not stated) | active: 62.4% |

| Structure (SMILES) | inhibition |
| --- | --- |
| COc1cc(OC)cc(C(=O)NCC2(N3CCOCC3)CCCCC2)c1 | inactive: -5.35% |
| CCC(CO)(C(=O)OC1CN2CCC1CC2)c1ccccc1 (configuration not stated) | inactive: -3.08% |
| O=c1[nH]c2ccccc2n1C1CCN(C(c2cccs2)c2nnnn2C2CCCCC2)CC1 (configuration not stated) | active: 63.2% |
| COc1ccc(C(=O)NCC2(N3CCOCC3)CCCCC2)cc1OC | inactive: 2.51% |
| O=c1[nH]c2ccccc2n1C1CCN(C(c2ccnc3ccccc23)c2nnnn2C2CCCC2)CC1 (configuration not stated) | active: 51.9% |
| CCCCn1nnnc1C(c1ccccc1)N1CCC(n2c(=O)[nH]c3ccccc32)CC1 (configuration not stated) | active: 70.2% |
| COc1cc(C(=O)NCC2(N3CCOCC3)CCCCC2)cc(OC)c1C | inactive: -7.41% |
| O=C(NCC1(N2CCOCC2)CCCCC1)c1cc(Br)ccc1Cl | inactive: -5.89% |
| O=C(OC1CN2CCC1CC2)C1c2ccccc2C=Cc2ccccc21 (configuration not stated) | inactive: 8.99% |
| O=c1[nH]c2ccccc2n1C1CCN(C(c2cccs2)c2nnnn2C2CCCC2)CC1 (configuration not stated) | active: 51.1% |
| CCCCn1nnnc1C(c1cccc(OC)c1OC)N1CCC(n2c(=O)[nH]c3ccccc32)CC1 (configuration not stated) | active: 58.5% |
| COc1cccc(C(c2nnnn2C(C)(C)C)N2CCC(n3c(=O)[nH]c4ccccc43)CC2)c1OC (configuration not stated) | inactive: 36.1% |
| CCOC(=O)N1CCC(Nc2ccc(C)cc2)CC1 | inactive: -23.1% |
| N/C(=N\O)c1c(N)no[n+]1[O-] | inactive: -0.16% |
| N#Cc1ccc(C(=O)NCC2(N3CCCCC3)CCCCC2)cc1 | inactive: -4.6% |
| CC(C)(C)OC(=O)N1CCC(N(C(=O)c2ccccc2)c2ccc(Cl)cc2)CC1 | inactive: -22.5% |
| CC(C)(C)n1nnnc1C(c1cccc2ccccc12)N1CCC(n2c(=O)[nH]c3ccccc32)CC1 (configuration not stated) | inactive: 33.7% |
| CN(C)C1(CNC(=O)c2cccc(C#N)c2)CCCCC1 | inactive: -20.5% |
| c1ccc(CN2CCC(Nc3ccccc3)CC2)cc1 | inactive: 2.26% |
| C/C(N)=N\P(=O)(Oc1ccccc1)Oc1ccccc1 | inactive: -6.75% |
| O=c1[nH]c2ccccc2n1C1CCN(C(c2ccccc2)c2nnnn2C2CCCC2)CC1 (configuration not stated) | active: 54.4% |
| CCCN1CCC(Nc2cc(OC)cc(OC)c2)CC1 | inactive: -19.3% |
| Cc1cc(N(CCCl)CCCl)ccc1C=O | inactive: 7.11% |
